Measured values published in PubChem BioAssay (NCI).
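Method: 48-hour compound exposure of cells in 96-well plates, five concentrations, linear interpolation of endpoints. GI50: concentration for 50% inhibition of growth.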

Experiments:
Assay in all cases: NCI-60 cell line screen, 48 h; in the data active means GI50 below about 0.43 µM; inactive means the rest
DU-145 prostate = tested on: DU-145 prostate
NCI-H226 lung = tested on: NCI-H226 lung
ACHN renal = tested on: ACHN renal
NCI/ADR-RES ovarian = tested on: NCI/ADR-RES ovarian
HOP-62 NSCLC = tested on: HOP-62 NSCLC
SF-295 CNS = tested on: SF-295 CNS
MALME-3M melanoma = tested on: MALME-3M melanoma
CAKI-1 renal = tested on: CAKI-1 renal
OVCAR-4 ovarian = tested on: OVCAR-4 ovarian
T-47D breast = tested on: T-47D breast
SR leukemia = tested on: SR leukemia
OVCAR-3 ovarian = tested on: OVCAR-3 ovarian
TK-10 renal = tested on: TK-10 renal
SF-539 CNS = tested on: SF-539 CNS
SK-MEL-28 melanoma = tested on: SK-MEL-28 melanoma
HCT-15 colon = tested on: HCT-15 colon
786-0 renal = tested on: 786-0 renal
MDA-MB-231 breast = tested on: MDA-MB-231 breast
OVCAR-8 ovarian = tested on: OVCAR-8 ovarian
HCT-116 colon = tested on: HCT-116 colon
RPMI-8226 leukemia = tested on: RPMI-8226 leukemia
A549 NSCLC = tested on: A549 NSCLC
SK-MEL-2 melanoma = tested on: SK-MEL-2 melanoma
PC-3 prostate = tested on: PC-3 prostate
UACC-62 melanoma = tested on: UACC-62 melanoma
SK-MEL-5 melanoma = tested on: SK-MEL-5 melanoma
U251 CNS = tested on: U251 CNS
MOLT-4 leukemia = tested on: MOLT-4 leukemia
A498 renal = tested on: A498 renal
BT-549 breast = tested on: BT-549 breast
HL-60(TB) leukemia = tested on: HL-60(TB) leukemia
M14 melanoma = tested on: M14 melanoma
UO-31 renal = tested on: UO-31 renal
EKVX NSCLC = tested on: EKVX NSCLC
SN12C renal = tested on: SN12C renal
HOP-92 NSCLC = tested on: HOP-92 NSCLC
SNB-19 CNS = tested on: SNB-19 CNS
KM12 colon = tested on: KM12 colon
COLO 205 colon = tested on: COLO 205 colon
SF-268 CNS = tested on: SF-268 CNS
SW-620 colon = tested on: SW-620 colon
NCI-H23 lung = tested on: NCI-H23 lung
MDA-N = tested on: MDA-N
MDA-MB-435 = tested on: MDA-MB-435
HT29 colon = tested on: HT29 colon
IGROV1 ovarian = tested on: IGROV1 ovarian
HS 578T breast = tested on: HS 578T breast
NCI-H522 lung = tested on: NCI-H522 lung
SK-OV-3 ovarian = tested on: SK-OV-3 ovarian
OVCAR-5 ovarian = tested on: OVCAR-5 ovarian
UACC-257 melanoma = tested on: UACC-257 melanoma
K-562 leukemia = tested on: K-562 leukemia

Measured: GI50

CN(C(=O)[C@@H](N)c1ccccc1)[C@H]1CCCC[C@@H]1N1CCCC1
inactive: DU-145 prostate > 100 µM | NCI-H226 lung > 100 µM | ACHN renal > 100 µM | NCI/ADR-RES ovarian > 100 µM | HOP-62 NSCLC > 100 µM | SF-295 CNS > 100 µM | MALME-3M melanoma > 100 µM | CAKI-1 renal > 100 µM | OVCAR-4 ovarian > 100 µM | T-47D breast > 100 µM | SR leukemia 5.99 µM | OVCAR-3 ovarian > 100 µM | TK-10 renal > 100 µM | SF-539 CNS > 100 µM | SK-MEL-28 melanoma > 100 µM | HCT-15 colon > 100 µM | 786-0 renal > 100 µM | MDA-MB-231 breast > 100 µM | OVCAR-8 ovarian > 100 µM | HCT-116 colon > 100 µM | RPMI-8226 leukemia > 100 µM | A549 NSCLC > 100 µM | SK-MEL-2 melanoma > 100 µM | PC-3 prostate > 100 µM | UACC-62 melanoma > 100 µM | SK-MEL-5 melanoma > 100 µM | U251 CNS > 100 µM | MOLT-4 leukemia > 100 µM | A498 renal > 100 µM | BT-549 breast > 100 µM | HL-60(TB) leukemia > 100 µM | M14 melanoma > 100 µM | UO-31 renal > 100 µM | EKVX NSCLC > 100 µM | SN12C renal > 100 µM | HOP-92 NSCLC 9.37 µM | SNB-19 CNS > 100 µM | KM12 colon > 100 µM | COLO 205 colon > 100 µM | SF-268 CNS > 100 µM | SW-620 colon > 100 µM | NCI-H23 lung > 100 µM | MDA-N > 100 µM | MDA-MB-435 = > 100 µM | HT29 colon > 100 µM | IGROV1 ovarian > 100 µM | HS 578T breast > 100 µM | NCI-H522 lung > 100 µM | SK-OV-3 ovarian > 100 µM | OVCAR-5 ovarian > 100 µM | UACC-257 melanoma > 100 µM | K-562 leukemia > 100 µM
